Assay results from ChEMBL document CHEMBL5727031, “Metabotropic glutamate receptor negative allosteric modulators (NAMS) and uses thereof” (2018).

How the values were obtained:
[1] = (§1) In Vitro GIRK Thallium Flux Assay (2.5 minutes): Human Embryonic Kidney (HEK-293) cell lines co-expressing rat mGlu receptors 2, 3, 4, 6, 7 or 8 and G protein-coupled inwardly-rectifying potassium (GIRK) channels_ENREF_54 were grown in Growth Media containing 45% DMEM, 45% F-12, 10% FBS, 20 mM HEPES, 2 mM L-glutamine, antibiotic/antimycotic, non-essential amino acids, 700 μg/ml G418, and 0.6 μg/ml puromycin at 37° C. in the presence of 5% CO2. All cell culture reagents were purchased from Invitrogen Corp. (Carlsbad, Calif.) unless otherwise noted. Compound activity at the group II (mGlu2 and mGlu3) mGlus was assessed using thallium flux through GIRK channels. Briefly, cells were plated into 384-well, black-walled, clear-bottomed poly-D-lysine-coated plates at a density of 15,000 cells/20 μL/well in DMEM containing 10% dialyzed FBS, 20 mM HEPES, and 100 units/mL penicillin/streptomycin (assay media). Plated cells were incubated overnight at 37° C. in the presence of 5% CO2. The following day, the medium was exchanged from the cells to assay buffer [Hanks' balanced salt solution (Invitrogen) containing 20 mM HEPES, pH 7.3] using an ELX405 microplate washer (BioTek), leaving 20 μL/well, followed by the addition of 20 μL/well FluoZin2-AM (330 nM final concentration) indicator dye (Invitrogen; prepared as a stock in DMSO and mixed in a 1:1 ratio with Pluronic acid F-127) in assay buffer. […]; details: HEK293, 2.5 min
[2] = as §1; details: HEK293, 2.5 min; remark: listed apart in the source
[3] = as §1, with “(60” for “(2.5”; details: HEK293, 1 h

## Cc1cc2c(cc1C(F)(F)F)NC(=O)CC(c1cccc(Oc3ncccn3)c1)=N2
[1]
  EC50: 0.37 µM
[2]
  EC50: 0.42 µM
[3]
  EC50: 0.15 µM
